Source: patent US20020161202A1, “Apo-2DcR” (Genentech, Inc., priority 1997, published 2002)

Experiments:
NF-κB [1] = assay: NF-κB activity in HeLa cells treated with soluble ligand; assay type: cell-based, human; conditions: 1 μg/ml, FIG. 12B
NF-κB [2] = assay: NF-κB activity in MCF7 cells treated with soluble ligand; assay type: cell-based, human; conditions: 1 μg/ml, FIG. 12B

For “TNF-alpha: tumor necrosis factor-α (Genentech, Inc.)”, the “NF-κB activation in treated HeLa cells” value (NF-κB [1]) was “more pronounced activation” and the “NF-κB activation in treated MCF7 cells” value (NF-κB [2]) was “more pronounced activation”.
